Results: US9169290B2, “Peptides and their use” (priority 2007, dated 2015)
Values after ≈ are worked out from the molar mass of the structure shown.

Columns and labels:
[1] = tested on: C. albicans; assay type: cell-based, Candida albicans
Description: (§1) Broth Dilution Antifungal Susceptibility Testing
(§2) The sensitivity of relevant fungal strains to the peptides was determined using Clinical Laboratory Standard Institute (CLSI; formerly NCCLS) Approved Standards.

[2] = tested on: C. krusei; assay type: cell-based, Candida krusei
Description: as §1, §2

[3] = tested on: Trichophyton rubrum; assay type: cell-based
Description: as §1, §2

[4] = tested on: Malasezzia furfur; assay type: cell-based
Description: as §1, §2

NCCCC[C@H](NC(=O)[C@H](CCCCN)NC(=O)[C@@H](N)CCCCN)C(=O)O [NP342, KKK]
MIC [1]: >2048 µM

N=C(N)NCCC[C@H](NC(=O)[C@H](CCCNC(=N)N)NC(=O)[C@H](CCCNC(=N)N)NC(=O)[C@H](CCCNC(=N)N)NC(=O)[C@H](CCCNC(=N)N)NC(=O)[C@H](CCCNC(=N)N)NC(=O)[C@H](CCCNC(=N)N)NC(=O)[C@H](CCCNC(=N)N)NC(=O)[C@H](CCCNC(=N)N)NC(=O)[C@H](CCCNC(=N)N)NC(=O)[C@H](CCCNC(=N)N)NC(=O)[C@H](CCCNC(=N)N)NC(=O)[C@H](CCCNC(=N)N)NC(=O)[C@H](CCCNC(=N)N)NC(=O)[C@@H](N)CCCNC(=N)N)C(=O)O [NP319, RRRRRRRRRRRRRRR]
MIC [2]: <16 µM | MIC, Candida krusei NCPF3953 [2]: 8 µM (≈ 18.9 µg/mL) | MIC [3]: >2 µM | MIC [4]: 256 µM (≈ 604 µg/mL) | MIC, Candida albicans NCTC3179 [1]: 4 µM (≈ 9.44 µg/mL)

N=C(N)NCCC[C@H](NC(=O)[C@H](CCCNC(=N)N)NC(=O)[C@H](CCCNC(=N)N)NC(=O)[C@H](CCCNC(=N)N)NC(=O)[C@H](CCCNC(=N)N)NC(=O)[C@H](CCCNC(=N)N)NC(=O)[C@H](CCCNC(=N)N)NC(=O)[C@H](CCCNC(=N)N)NC(=O)[C@H](CCCNC(=N)N)NC(=O)[C@H](CCCNC(=N)N)NC(=O)[C@H](CCCNC(=N)N)NC(=O)[C@H](CCCNC(=N)N)NC(=O)[C@H](CCCNC(=N)N)NC(=O)[C@H](CCCNC(=N)N)NC(=O)[C@@H](N)CCCNC(=N)N)C(=O)O [NP352, RRRRRRRRRRRRRRR]
MIC [2]: 32 µM (≈ 75.5 µg/mL) | MIC [1]: 4 µM (≈ 9.44 µg/mL)
